Data published in ChEMBL document CHEMBL1126355, “The basis for slowly reversible inhibition of dehydroquinate synthase: a case of mistaken identity?” (Bioorg Med Chem Lett, 1992).

Amino acid sequences for entries named in this document (tags omitted). A change or cut given only in a name is not applied to a line headed by its entry.
UniProt P07639: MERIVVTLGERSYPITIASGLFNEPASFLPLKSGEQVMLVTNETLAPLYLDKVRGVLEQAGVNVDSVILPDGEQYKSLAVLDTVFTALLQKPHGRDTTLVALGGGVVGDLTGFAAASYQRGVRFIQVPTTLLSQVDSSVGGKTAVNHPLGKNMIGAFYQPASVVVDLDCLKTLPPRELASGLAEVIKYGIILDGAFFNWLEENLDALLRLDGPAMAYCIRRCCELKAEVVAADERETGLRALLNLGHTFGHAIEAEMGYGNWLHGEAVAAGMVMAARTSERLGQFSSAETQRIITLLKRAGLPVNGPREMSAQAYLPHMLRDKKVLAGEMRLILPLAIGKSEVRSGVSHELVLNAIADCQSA

Biological target: 3-dehydroquinate synthase (Escherichia coli K-12, UniProt P07639)
Assay: Inhibition constant against 3-dehydroquinate synthase

Question: Which Ki does the source give for `O=C(O)C1(O)CCC(O)C(CP(=O)(O)O)C1` (stereo unspecified) here?
Answer: The Ki was 0.22 µM.
